Test system: Vero
Assay: Cytotoxicity against african green monkey Vero cells by neutral red assay upto 16.72 uM
Format: cell-based
Details: chlorocebus sabaeus

Structure (SMILES): c1ccc(C2OOC3(CCCC3)OO2)cc1
- Activity: Non-toxic

— ChEMBL document CHEMBL1142270, “Synthesis, thermal stability, antimalarial activity of symmetrically and asymmetrically substituted tetraoxanes” (Bioorg Med Chem Lett, 2008)
